Source: patent US7674787B2, “Conformationally constrained Smac mimetics and the uses thereof” (The Regents of the University of Michigan, priority 2004, dated 2010)

Sequences of proteins named here, by UniProt entry; tags and fusion partners are left off. Residues count along the entry.
UniProt P98170, 241-356: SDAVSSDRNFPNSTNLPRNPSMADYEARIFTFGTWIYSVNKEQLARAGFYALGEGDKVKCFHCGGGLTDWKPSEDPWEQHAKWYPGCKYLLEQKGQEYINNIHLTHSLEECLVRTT

Biological target: XIAP BIR3 (Homo sapiens, UniProt P98170)
Experiment: biochemical

Question: What does the source list for `CC[C@H](N)C(=O)N[C@H]1CCC[C@H]2CC[C@@H](C(=O)NC(c3ccccc3)c3ccccc3)N2C1=O` [Compound 34]?
Answer: Ki (Ki): 0.02 µM; Ki (Ki (μM), Table 4, [5.3.0] bicyclic lactam system): 0.02 ± 0.007 µM; Ki (Ki (μM), Table 5): 0.022 µM; Ki (Ki, 5 nM SM5F and 0.030 μM XIAP-BIR3 protein): 0.02 µM
